Measured values as given in patent EP4603105A1, “PHARMACEUTICAL COMPOSITION CONTAINING CYCLIC COMPOUND HAVING SELECTIVE KRAS INHIBITORY EFFECT AGAINST HRAS AND NRAS” (CHUGAI SEIYAKU KABUSHIKI KAISHA, priority 2022, dated 2024).

Sequences of proteins named here, by UniProt entry; tags and fusion partners are left off. Residues count along the entry.
UniProt P01112, whole entry: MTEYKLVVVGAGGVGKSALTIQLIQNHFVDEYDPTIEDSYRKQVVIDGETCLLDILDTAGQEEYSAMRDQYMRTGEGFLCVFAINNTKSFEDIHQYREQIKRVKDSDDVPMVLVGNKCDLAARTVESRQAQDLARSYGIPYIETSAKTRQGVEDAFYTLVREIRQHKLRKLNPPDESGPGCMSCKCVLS
UniProt P01116, 1-188 isoform 2: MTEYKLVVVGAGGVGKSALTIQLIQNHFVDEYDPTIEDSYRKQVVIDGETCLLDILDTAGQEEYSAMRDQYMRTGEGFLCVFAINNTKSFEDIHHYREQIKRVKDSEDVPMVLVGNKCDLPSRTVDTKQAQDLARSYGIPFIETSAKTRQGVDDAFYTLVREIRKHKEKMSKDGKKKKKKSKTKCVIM
UniProt P01111, whole entry: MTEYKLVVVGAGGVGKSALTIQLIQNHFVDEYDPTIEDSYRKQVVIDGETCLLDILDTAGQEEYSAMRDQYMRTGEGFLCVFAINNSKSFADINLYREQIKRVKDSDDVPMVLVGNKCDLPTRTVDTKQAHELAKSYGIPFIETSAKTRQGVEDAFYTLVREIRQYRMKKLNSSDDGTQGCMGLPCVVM

Target: HRAS wild-type protein (Homo sapiens, UniProt P01112)
Experiment: Binding to HRAS by surface plasmon resonance (SPR), KD and KD ratio to KRAS
Conditions: ratio of KD for HRAS wild-type protein to KD for KRAS

Compound	HRAS /KRAS
CCOC[C@H]1C(=O)N[C@@H]([C@@H](C)OCC)C(=O)N2CCC[C@H]2C(=O)N(C)[C@H]2C/C=C\CCN(C2=O)[C@@H](Cc2ccc(C)cc2)C(=O)N(C)CC(=O)N[C@@H](CCc2ccc(C(F)(F)F)c(OC)c2)C(=O)N2C[C@@H](C)C[C@H]2C(=O)NC2(CC(C)(C)C2)C(=O)N(C)[C@@H](C2CCCC2)C(=O)N(C)[C@H](C(=O)N(C)CC)CC(=O)N1C	A (a compound having 10 or more and less than 20 is denoted as A)
CCO[C@@H]1C[C@H]2C(=O)NC3(CC(C)(C)C3)C(=O)N(C)[C@@H](C3CCCC3)C(=O)N(C)[C@H](C(=O)N(C)C)CC(=O)N(C)[C@@H](COC)C(=O)N[C@@H]([C@@H](C)CC)C(=O)N(C)CC(=O)N(C)[C@H]3C/C=C\CCN(C3=O)[C@@H](Cc3ccc(C)cc3)C(=O)N(C)CC(=O)N[C@@H](CCc3cc(F)c(C(F)(F)F)c(F)c3)C(=O)N2C1	A (a compound having 10 or more and less than 20 is denoted as A)
CC[C@H](C)[C@@H]1NC(=O)[C@H](COC)N(C)C(=O)C[C@@H](C(=O)N(CC)CC)N(C)C(=O)[C@H](C2CCCC2)N(C)C(=O)C2(CC(C)(C)C2)NC(=O)[C@@H]2C[C@H](C)CN2C(=O)[C@H](CCc2ccc(C(F)(F)F)c(OC)c2)NC(=O)CN(C)C(=O)[C@H](Cc2ccc(C)cc2)N2CC/C=C\C[C@@H](C2=O)N(C)C(=O)CN(C)C1=O	A (a compound having 10 or more and less than 20 is denoted as A)
CCCOC[C@H]1C(=O)N[C@@H]([C@@H](C)CC)C(=O)N(C)CC(=O)N(C)[C@H]2C/C=C\CCN(C2=O)[C@@H](CC2CCC(F)(F)CC2)C(=O)N(C)CC(=O)N[C@@H](CCc2ccc(C(F)(F)F)c(OC)c2)C(=O)N2C[C@@H](C)C[C@H]2C(=O)N(C)C2(CCC2)C(=O)N(C)[C@@H](C2CCCC2)C(=O)N(C)[C@H](C(=O)N(C)C)CC(=O)N1C	A (a compound having 10 or more and less than 20 is denoted as A)
CCO[C@H](C)[C@@H]1NC(=O)[C@H](CC(C)C)N(C)C(=O)C[C@@H](C(=O)N(C)CC)N(C)C(=O)[C@H](C2CCCC2)N(C)C(=O)C2(CC(C)(C)C2)NC(=O)[C@@H]2C[C@H](C)CN2C(=O)[C@H](CCc2ccc(C(F)(F)F)c(OC)c2)NC(=O)CN(C)C(=O)[C@H](Cc2ccc(C)cc2)N2CC/C=C\C[C@@H](C2=O)N(C)C(=O)[C@@H]2CCCN2C1=O	A (a compound having 10 or more and less than 20 is denoted as A)
CCO[C@@H]1C[C@H]2C(=O)NC3(CC(C)(C)C3)C(=O)N(C)[C@@H](C3CCCC3)C(=O)N(C)[C@H](C(=O)N(CC)CC)CC(=O)N(C)[C@@H](COC)C(=O)N[C@@H]([C@@H](C)CC)C(=O)N(C)CC(=O)N(C)[C@H]3C/C=C\CCN(C3=O)[C@@H](Cc3ccc(C)cc3)C(=O)N(C)CC(=O)N[C@@H](CCc3ccc(C(F)(F)F)c(Cl)c3)C(=O)N2C1	A (a compound having 10 or more and less than 20 is denoted as A)

Same assay, conditions: ratio of KD with respect to HRAS wild-type protein to KD with respect to KRAS

Compound	HRAS /KRAS
CC[C@H](C)[C@@H]1NC(=O)[C@H](CC)N(C)C(=O)C[C@@H](C(=O)N(C)C)N(C)C(=O)[C@H](C2CCCC2)N(C)C(=O)C2(CCCC2)NC(=O)[C@@H]2CCCN2C(=O)[C@H](CCc2cc(F)c(C(F)(F)F)c(F)c2)NC(=O)CN(C)C(=O)[C@H](Cc2ccc(C(F)(F)F)cc2)N2CC(C)[C@@H](C)C[C@@H](C2=O)N(C)C(=O)CN(C)C1=O (stereo partly drawn)	B (a compound having 3 or more and less than 10 is denoted as B)
CCO[C@@H]1C[C@H]2C(=O)NC3(CCC3)C(=O)N(C)[C@@H](C3CCCC3)C(=O)N(C)[C@H](C(=O)N(C)C)CC(=O)N(C)[C@@H](CCOC)C(=O)N[C@@H]([C@@H](C)CC)C(=O)N(C)CC(=O)N(C)[C@H]3CCCCCN(C3=O)[C@@H](Cc3ccc(F)cc3)C(=O)N(C)CC(=O)N[C@@H](CCc3cc(F)c(C(F)(F)F)c(F)c3)C(=O)N2C1	B (a compound having 3 or more and less than 10 is denoted as B)
CC[C@H](C)[C@@H]1NC(=O)[C@H](CC)N(C)C(=O)C[C@@H](C(=O)N(C)C)N(C)C(=O)[C@H](C2CCCC2)N(C)C(=O)C2(CCC2)NC(=O)[C@H](COC)N(C)C(=O)[C@H](CCc2cc(F)c(C(F)(F)F)c(F)c2)NC(=O)CN(C)C(=O)[C@H](Cc2ccc(C(F)(F)F)cc2)N2CC/C=C\C[C@@H](C2=O)N(C)C(=O)CN(C)C1=O	B (a compound having 3 or more and less than 10 is denoted as B)
CC[C@H](C)[C@@H]1NC(=O)[C@H](CC)N(C)C(=O)C[C@@H](C(=O)N2CCOCC2)N(C)C(=O)[C@H](C2CCCC2)N(C)C(=O)C2(CCC2)NC(=O)[C@@H]2CCCN2C(=O)[C@H](CCc2cc(F)c(C(F)(F)F)c(F)c2)NC(=O)CN(C)C(=O)[C@H](Cc2ccc(C(F)(F)F)cc2)N2C[C@H](C)CC[C@@H](C2=O)N(C)C(=O)CN(C)C1=O	B (a compound having 3 or more and less than 10 is denoted as B)
CC[C@H](C)[C@@H]1NC(=O)[C@H](CC(C)C)N(C)C(=O)C[C@@H](C(=O)N2CCOCC2)N(C)C(=O)[C@H](C2CCCC2)N(C)C(=O)C2(CCC2)NC(=O)[C@@H]2CCCN2C(=O)[C@H](CCc2ccc(C(F)(F)F)c(Cl)c2)NC(=O)CN(C)C(=O)[C@H](Cc2ccc(C(F)(F)F)cc2)N2C[C@H](C)CC[C@@H](C2=O)N(C)C(=O)[C@@H]2CCN2C1=O	B (a compound having 3 or more and less than 10 is denoted as B)
CCO[C@@H]1C[C@H]2C(=O)NC3(CCC3)C(=O)N(C)[C@@H](C3CCCC3)C(=O)N(C)[C@H](C(=O)N(C)C)CC(=O)N(C)[C@@H](CC)C(=O)N[C@@H](C3CCC3)C(=O)N(C)CC(=O)N(C)[C@H]3C/C=C\CCN(C3=O)[C@@H](Cc3ccc(C(F)(F)F)cc3)C(=O)N(C)CC(=O)N[C@@H](CCc3cc(F)c(C(F)(F)F)c(F)c3)C(=O)N2C1	B (a compound having 3 or more and less than 10 is denoted as B)
CC[C@H](C)[C@@H]1NC(=O)[C@H](CC)N(C)C(=O)C[C@@H](C(=O)N(C)C)N(C)C(=O)[C@H](C2CCCC2)N(C)C(=O)C2(CCCC2)NC(=O)[C@@H]2CCCN2C(=O)[C@H](CCc2cc(F)c(C(F)(F)F)c(F)c2)NC(=O)CN(C)C(=O)[C@H](Cc2ccc(C(F)(F)F)cc2)N2C[C@H](C)CC[C@@H](C2=O)N(C)C(=O)CN(C)C1=O	B (a compound having 3 or more and less than 10 is denoted as B)
CCO[C@@H]1C[C@H]2C(=O)NC3(CCCC3)C(=O)N(C)[C@@H](C(CC)CC)C(=O)N(C)[C@H](C(=O)N3CCCC3)CC(=O)N(C)[C@@H](COC)C(=O)N[C@@H]([C@@H](C)CC)C(=O)N(C)CC(=O)N(C)[C@H]3C/C=C\CCN(C3=O)[C@@H](CC3CCCCC3)C(=O)N(C)CC(=O)N[C@@H](CCc3cc(F)c(C(F)(F)F)c(F)c3)C(=O)N2C1	A (a compound having 10 or more and less than 20 is denoted as A)
CCO[C@@H]1C[C@H]2C(=O)NC3(CCC3)C(=O)N(C)[C@@H](C(CC)CC)C(=O)N(C)[C@H](C(=O)N(C)C)CC(=O)N(C)[C@@H](CC(C)C)C(=O)N[C@@H]([C@@H](C)CC)C(=O)N(C)CC(=O)N(C)[C@H]3C/C=C\CCN(C3=O)[C@@H](Cc3ccc(C(F)(F)F)cc3)C(=O)N(C)CC(=O)N[C@@H](CCc3cc(F)c(Cl)c(F)c3)C(=O)N2C1	A (a compound having 10 or more and less than 20 is denoted as A)
CCC[C@H]1C(=O)N[C@@H]([C@@H](C)CC)C(=O)N(C)CC(=O)N(C)[C@H]2C/C=C\CCN(C2=O)[C@@H](Cc2ccc(C(F)(F)F)cc2)C(=O)N(C)CC(=O)N[C@@H](CCc2ccc(Cl)c(Cl)c2)C(=O)N2C[C@H](OCC)C[C@H]2C(=O)NC2(CCC2)C(=O)N(C)[C@@H](C2CCCC2)C(=O)N(C)[C@H](C(=O)N(C)C)CC(=O)N1C	A (a compound having 10 or more and less than 20 is denoted as A)
CCO[C@@H]1C[C@H]2C(=O)NC3(CCC3)C(=O)N(C)[C@@H](C(CC)CC)C(=O)N(C)[C@H](C(=O)N(C)C)CC(=O)N(C)[C@@H](CC(C)C)C(=O)N[C@@H]([C@@H](C)CC)C(=O)N(C)CC(=O)N(C)[C@H]3C/C=C\CCN(C3=O)[C@@H](CC3CCCCC3)C(=O)N(C)CC(=O)N[C@@H](CCc3cc(F)c(C(F)(F)F)c(F)c3)C(=O)N2C1	A (a compound having 10 or more and less than 20 is denoted as A)

Same assay, conditions: ratio of the KD value with respect to HRAS wild-type protein to the KD value with respect to KRAS

Compound	HRAS /KRAS
CC[C@H](C)[C@@H]1NC(=O)[C@H](CC(C)C)N(C)C(=O)C[C@@H](C(=O)N(C)C)N(C)C(=O)[C@H](C2CCCC2)N(C)C(=O)C2(CCCC2)NC(=O)[C@@H]2CCCN2C(=O)[C@H](CCc2ccc(C(F)(F)F)c(Cl)c2)NC(=O)CN(C)C(=O)[C@H](Cc2ccc(C(F)(F)F)cc2)N2CC/C=C(/C)C[C@@H](C2=O)N(C)C(=O)CN(C)C1=O	B (a compound having 3 or more and less than 10 is denoted as B)
CC[C@H](C)[C@@H]1NC(=O)[C@H](CC(C)C)N(C)C(=O)C[C@@H](C(=O)N(C)C)N(C)C(=O)[C@H](C2CCCC2)N(C)C(=O)C2(CCCC2)NC(=O)[C@@H]2CCCN2C(=O)[C@H](CCc2ccc(C(F)(F)F)c(Cl)c2)NC(=O)CN(C)C(=O)[C@H](Cc2ccc(C(F)(F)F)cc2)N2CCC=CCCN(CC2=O)C(=O)CN(C)C1=O	C (A compound having a KD ratio of 0.1 or more and less than 3 is denoted as C)
CC[C@H](C)[C@@H]1NC(=O)[C@H](CC(C)C)N(C)C(=O)C[C@@H](C(=O)N(C)C)N(C)C(=O)[C@H](C2CCCC2)N(C)C(=O)C2(CCCC2)NC(=O)[C@@H]2CCCN2C(=O)[C@H](CCc2ccc(C(F)(F)F)c(Cl)c2)NC(=O)CN(C)C(=O)[C@H](Cc2ccc(C(F)(F)F)cc2)N2CC=CCOC[C@@H](C2=O)N(C)C(=O)CN(C)C1=O	C (A compound having a KD ratio of 0.1 or more and less than 3 is denoted as C)

Target: GDP-bound KRAS wild-type protein (Homo sapiens, UniProt P01116)
Experiment: Binding to KRAS by surface plasmon resonance (SPR), dissociation constant KD
Conditions: read-out: KRAS KD, Single Cycle Kinetics, 1:1 binding model

Compound	Kd
CC[C@H](C)[C@@H]1NC(=O)[C@H](CC)N(C)C(=O)C[C@@H](C(=O)N(C)C)N(C)C(=O)[C@H](C2CCCC2)N(C)C(=O)C2(CCCC2)NC(=O)[C@@H]2CCCN2C(=O)[C@H](CCc2cc(F)c(C(F)(F)F)c(F)c2)NC(=O)CN(C)C(=O)[C@H](Cc2ccc(C(F)(F)F)cc2)N2CC(C)[C@@H](C)C[C@@H](C2=O)N(C)C(=O)CN(C)C1=O (stereo partly drawn)	0.09 nM

Target: GDP-bound NRAS wild-type protein (Homo sapiens, UniProt P01111)
Experiment: Binding to NRAS by surface plasmon resonance (SPR), KD and KD ratio to KRAS
Conditions: ratio of the KD value with respect to GDP-bound NRAS wild-type protein to the KD value with respect to KRAS

Compound	NRAS /KRAS
CC[C@H](C)[C@@H]1NC(=O)[C@H](CC(C)C)N(C)C(=O)C[C@@H](C(=O)N(C)C)N(C)C(=O)[C@H](C2CCCC2)N(C)C(=O)C2(CCCC2)NC(=O)[C@@H]2CCCN2C(=O)[C@H](CCc2ccc(C(F)(F)F)c(Cl)c2)NC(=O)CN(C)C(=O)[C@H](Cc2ccc(C(F)(F)F)cc2)N2CC/C=C(/C)C[C@@H](C2=O)N(C)C(=O)CN(C)C1=O	B (a compound having 3 or more and less than 10 is denoted as B)
CC[C@H](C)[C@@H]1NC(=O)[C@H](CC(C)C)N(C)C(=O)C[C@@H](C(=O)N(C)C)N(C)C(=O)[C@H](C2CCCC2)N(C)C(=O)C2(CCCC2)NC(=O)[C@@H]2CCCN2C(=O)[C@H](CCc2ccc(C(F)(F)F)c(Cl)c2)NC(=O)CN(C)C(=O)[C@H](Cc2ccc(C(F)(F)F)cc2)N2CCC=CCCN(CC2=O)C(=O)CN(C)C1=O	C (A compound having a KD ratio of 0.1 or more and less than 3 is denoted as C)
CC[C@H](C)[C@@H]1NC(=O)[C@H](CC(C)C)N(C)C(=O)C[C@@H](C(=O)N(C)C)N(C)C(=O)[C@H](C2CCCC2)N(C)C(=O)C2(CCCC2)NC(=O)[C@@H]2CCCN2C(=O)[C@H](CCc2ccc(C(F)(F)F)c(Cl)c2)NC(=O)CN(C)C(=O)[C@H](Cc2ccc(C(F)(F)F)cc2)N2CC=CCOC[C@@H](C2=O)N(C)C(=O)CN(C)C1=O	C (A compound having a KD ratio of 0.1 or more and less than 3 is denoted as C)
